Assay results as given in PubChem BioAssay AID624168 (Sanford-Burnham Center for Chemical Genomics, 2012).
Only a part is listed here, and it is no random draw. Active and inactive are the calls of the source.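 The calls were made as follows: active = activation of at least 8% versus controls, or a plate z-score of at least 8; inactive = the rest.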

Test: activators of alpha-DG glycosylation, primary screen, uHTS, Pro5-aDG cells, AlphaScreen (AID 624168);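 also: Pro5 are CHO cells carrying HIG-tagged alpha-DG that lacks glycosylation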
Details: alpha-DG glycosylation AlphaScreen (IIH6), at 10 µM, active compounds read high, 0% Pro5, 100% B10-LARGE cell signal

**Q.** With `Cc1nc2ccc3ccccc3c2s1.O=[N+]([O-])c1cc([N+](=O)[O-])c(O)c([N+](=O)[O-])c1` as the compound, how does the activation read?
**A.** inactive: -0.1%

**Q.** With `O=[N+]([O-])c1cc([N+](=O)[O-])c(-c2cnn(-c3ccccc3)c2)c([N+](=O)[O-])c1` as the compound, how does the activation read?
**A.** inactive: 1%

**Q.** With `CN(Cc1cccnc1)C(=O)COc1ccc(Cl)c(Cl)c1.O=[N+]([O-])c1cc([N+](=O)[O-])c(O)c([N+](=O)[O-])c1` as the compound, how does the activation read?
**A.** inactive: 0%

**Q.** For `O=[N+]([O-])c1cc([N+](=O)[O-])c(-n2nnc3ccccc32)c([N+](=O)[O-])c1`, which activation is on record?
**A.** inactive: -0.2%

**Q.** Which activation does the source give for `CCCOc1ccc(NP(C)(=O)Oc2ccc(Cl)cc2)cc1` (stereo unspecified) here?
**A.** inactive: 0.4%

**Q.** Which activation does the source give for `CP(=O)(Nc1ccc(SC(F)(F)F)cc1)Oc1ccccc1` (stereo unspecified) here?
**A.** inactive: 0.2%

**Q.** With `COc1ccc(-c2ccccn2)cc1.O=[N+]([O-])c1cc([N+](=O)[O-])c(O)c([N+](=O)[O-])c1` as the compound, how does the activation read?
**A.** inactive: -0.3%

**Q.** With `COc1ccccc1OP(C)(=O)Nc1c(C)cccc1C` (stereo unspecified) as the compound, how does the activation read?
**A.** inactive: 0.1%

**Q.** For `CN1CCCCC1COC(=O)C1(O)c2ccccc2CCc2ccccc21` (stereo unspecified), which activation is on record?
**A.** inactive: 0.1%

**Q.** With `CCOC(=O)C(CC)C1=NC(C)(C)Cc2ccccc21.O=[N+]([O-])c1cc([N+](=O)[O-])c(O)c([N+](=O)[O-])c1` (stereo unspecified) as the compound, how does the activation read?
**A.** inactive: 0%

**Q.** Which activation does the source give for `CC1=C2N=C(C=C3N=C(C(C)=C4[N-][C@@](C)([C@@H]5N=C1[C@](C)(CCC(=O)NC[C@@H](C)OP(=O)([O-])O[C@H]1[C@@H](O)[C@@H](n6cnc7cc(C)c(C)cc76)O[C@@H]1CO)[C@H]5CC(N)=O)[C@@](C)(CC(N)=O)[C@@H]4CCC(N)=O)[C@@](C)(CC(N)=O)[C@@H]3CCC(N)=O)C(C)(C)[C@@H]2CCC(N)=O.[C-]#N.[Co+3]` here?
**A.** inactive: 0.1%

**Q.** For `O=[N+]([O-])c1cc([N+](=O)[O-])c(Nc2nnnn2CCO)c([N+](=O)[O-])c1`, which activation is on record?
**A.** inactive: 0.1%

**Q.** With `CC1=NCCc2c1[nH]c1ccccc21.O=[N+]([O-])c1cc([N+](=O)[O-])c(O)c([N+](=O)[O-])c1` as the compound, how does the activation read?
**A.** inactive: 0%

**Q.** For `O=C(O)c1cccc(Nc2c([N+](=O)[O-])cc([N+](=O)[O-])cc2[N+](=O)[O-])c1`, which activation is on record?
**A.** inactive: -0.1%

**Q.** With `Cc1cc(C)cc(OP(C)(=O)Nc2ccccn2)c1` (stereo unspecified) as the compound, how does the activation read?
**A.** inactive: 0.5%

**Q.** With `CP(=O)(Nc1cccc(Br)c1)Oc1ccccc1` (stereo unspecified) as the compound, how does the activation read?
**A.** inactive: 1%

**Q.** With `Cc1ccc(C)c(NP(C)(=O)Oc2ccccc2)c1` (stereo unspecified) as the compound, how does the activation read?
**A.** inactive: 0.3%

**Q.** Which activation does the source give for `Cc1cc(C)cc(OP(C)(=O)Nc2ccc(C)cc2C)c1` (stereo unspecified) here?
**A.** inactive: 0.2%

**Q.** With `CCOC(=O)c1ccc(NP(C)(=O)Oc2cc(C)cc(C)c2)cc1` (stereo unspecified) as the compound, how does the activation read?
**A.** inactive: 0.3%

**Q.** With `COc1ccccc1OP(C)(=O)Nc1cccc(Br)c1` (stereo unspecified) as the compound, how does the activation read?
**A.** inactive: 0%

**Q.** For `COc1ccccc1-c1ccccn1.O=[N+]([O-])c1cc([N+](=O)[O-])c(O)c([N+](=O)[O-])c1`, which activation is on record?
**A.** inactive: -0.3%

**Q.** With `CCN(CC)CCCOC(=O)C(O)(c1ccccc1)c1ccccc1` as the compound, how does the activation read?
**A.** inactive: 0.1%

**Q.** For `COc1ccc(OP(C)(=O)Nc2cccc(F)c2)cc1` (stereo unspecified), which activation is on record?
**A.** inactive: 0.3%

**Q.** Which activation does the source give for `COc1ccccc1OP(C)(=O)Nc1cc(Cl)ccc1C` (stereo unspecified) here?
**A.** inactive: 0.1%

**Q.** For `Cc1cc(C)cc(OP(C)(N)=O)c1` (stereo unspecified), which activation is on record?
**A.** inactive: -0.1%

**Q.** With `CCOC(=O)c1ccc(NP(C)(=O)Oc2ccccc2)cc1` (stereo unspecified) as the compound, how does the activation read?
**A.** inactive: -0.1%

**Q.** With `Cc1ccc(NP(C)(=O)Oc2ccccc2)c(C)c1` (stereo unspecified) as the compound, how does the activation read?
**A.** inactive: 0%

**Q.** With `COc1ccccc1OP(C)(=O)Nc1ccc(C)cc1` (stereo unspecified) as the compound, how does the activation read?
**A.** inactive: -0.2%

**Q.** Which activation does the source give for `Cc1cccc(C)c1OP(C)(N)=O` (stereo unspecified) here?
**A.** inactive: 0.2%

**Q.** Which activation does the source give for `CC(C)(C)c1ccc(OP(C)(=O)Nc2ccc(SC(F)(F)F)cc2)cc1` (stereo unspecified) here?
**A.** inactive: 0.5%

**Q.** Which activation does the source give for `O=[N+]([O-])c1ccc2c(c1)C=Nc1ccccc1O2` here?
**A.** inactive: 0.1%

**Q.** With `O=[N+]([O-])c1cc([N+](=O)[O-])c(Nc2cccnc2)c([N+](=O)[O-])c1` as the compound, how does the activation read?
**A.** inactive: 2.4%

**Q.** With `COc1ccccc1OP(C)(=O)Nc1ccccc1` (stereo unspecified) as the compound, how does the activation read?
**A.** inactive: -0.1%

**Q.** With `CP(=O)(Nc1ccccc1Br)Oc1ccccc1` (stereo unspecified) as the compound, how does the activation read?
**A.** inactive: -0.1%

**Q.** For `CP(=S)(Nn1cnnc1)Oc1ccccc1` (stereo unspecified), which activation is on record?
**A.** inactive: -0.2%

**Q.** With `CP(=O)(Nc1ccccn1)Oc1ccc(Cl)cc1` (stereo unspecified) as the compound, how does the activation read?
**A.** inactive: 0%

**Q.** Which activation does the source give for `CCOP(C)(=S)SCC(=O)NC(C)C(=O)O` (stereo unspecified) here?
**A.** inactive: -0.1%

**Q.** Which activation does the source give for `CCOC(=O)c1ccc(NP(C)(=O)Oc2ccc(OC)cc2)cc1` (stereo unspecified) here?
**A.** inactive: -0.1%

**Q.** Which activation does the source give for `O=[N+]([O-])c1cc([N+](=O)[O-])c(O)c([N+](=O)[O-])c1.c1ccc(Oc2ccncc2)cc1` here?
**A.** inactive: 0%

**Q.** Which activation does the source give for `Cc1cc(C)cc(OP(C)(=O)Nc2ccc(SC(F)(F)F)cc2)c1` (stereo unspecified) here?
**A.** inactive: 0%

**Q.** Which activation does the source give for `CP(=O)(NC(=O)Nc1ccccc1)Oc1ccccc1` (stereo unspecified) here?
**A.** inactive: -0.1%

**Q.** Which activation does the source give for `CCc1ccc(OP(C)(=O)N2CCN(c3ccc([N+](=O)[O-])cc3)CC2)cc1` (stereo unspecified) here?
**A.** inactive: 0.4%

**Q.** For `CP(=O)(Oc1ccccc1)OC(c1ccccc1)C(F)(F)F` (stereo unspecified), which activation is on record?
**A.** inactive: 0.3%

**Q.** For `Cc1cccc(C)c1OP(C)(=O)Nc1ccc(SC(F)(F)F)cc1` (stereo unspecified), which activation is on record?
**A.** inactive: 0.4%

**Q.** With `Cc1ccc(Nc2c([N+](=O)[O-])cc([N+](=O)[O-])cc2[N+](=O)[O-])cc1` as the compound, how does the activation read?
**A.** inactive: 1.5%

**Q.** With `CP(=O)(Nc1ccc(SC(F)(F)F)cc1)Oc1ccc(Cl)cc1` (stereo unspecified) as the compound, how does the activation read?
**A.** inactive: 0%

**Q.** Which activation does the source give for `CN(C)C(=O)c1c([N+](=O)[O-])cc([N+](=O)[O-])cc1[N+](=O)[O-]` here?
**A.** inactive: 4.1%

**Q.** For `CP(=O)(Nc1ccc(Cl)cc1)Oc1ccc(F)cc1` (stereo unspecified), which activation is on record?
**A.** inactive: -0.1%

**Q.** For `COc1ccccc1OP(C)(=O)Nc1ccccc1Br` (stereo unspecified), which activation is on record?
**A.** inactive: 0%

**Q.** With `CC(C)(C)c1ccc(OP(C)(=O)O)cc1` as the compound, how does the activation read?
**A.** inactive: 0.1%

**Q.** Which activation does the source give for `CCc1ccc(OP(C)(=O)Nc2cccnc2)cc1` (stereo unspecified) here?
**A.** inactive: 0%

**Q.** With `CP(=O)(Oc1ccccc1)N1CCOC1=O` (stereo unspecified) as the compound, how does the activation read?
**A.** inactive: 0.3%

**Q.** Which activation does the source give for `O=C(OCCCN1CCCC1)C(O)(c1ccccc1)C1CCCCC1` (stereo unspecified) here?
**A.** inactive: 0.1%

**Q.** Which activation does the source give for `COc1ccccc1OP(C)(=O)Nc1c(C)n(C)n(-c2ccccc2)c1=O` (stereo unspecified) here?
**A.** inactive: -0.1%

**Q.** Which activation does the source give for `COc1ccc(OP(C)(=O)Nc2ccc(Br)cc2)cc1` (stereo unspecified) here?
**A.** inactive: -0.1%

**Q.** Which activation does the source give for `CCN(CC)CC(O)COC(=O)C(O)(c1ccccc1)C1CCCCC1` (stereo unspecified) here?
**A.** inactive: 0%
